# From publication PMC6153549 (Investigational New Drugs, 2018)
# Conditions: rats, lapatinib 100 mg/kg p.o. alone (IIL), plasma, M ± SD
structure (smiles),measurement,value
"CS(=O)(=O)CCNCc1ccc(-c2ccc3ncnc(Nc4ccc(OCc5cccc(F)c5)c(Cl)c4)c3c2)o1 [lapatinib, Lapatinib]",t0.5,9.22 ± 3.93 (42.6) h
